Consider one compound from patent US20050065348A1, “Pyridin-2-yl-methylamine derivatives for treating opioid dependence” (priority 2001, published 2005).

Amino acid sequences for entries named in this document (tags omitted).
UniProt P19327, whole entry: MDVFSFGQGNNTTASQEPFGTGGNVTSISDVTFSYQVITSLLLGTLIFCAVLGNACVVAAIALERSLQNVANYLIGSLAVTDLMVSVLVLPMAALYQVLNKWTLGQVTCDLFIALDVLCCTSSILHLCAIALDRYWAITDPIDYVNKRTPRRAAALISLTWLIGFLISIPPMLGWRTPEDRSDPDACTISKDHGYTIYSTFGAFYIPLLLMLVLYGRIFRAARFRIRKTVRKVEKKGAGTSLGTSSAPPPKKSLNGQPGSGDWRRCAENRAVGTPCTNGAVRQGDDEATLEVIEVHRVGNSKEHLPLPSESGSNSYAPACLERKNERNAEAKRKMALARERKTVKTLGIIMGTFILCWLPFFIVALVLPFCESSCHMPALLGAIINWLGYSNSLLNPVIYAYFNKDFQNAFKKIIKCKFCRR

SMILES strings stand for the structures.

One test deals with T1, 5-HT1A receptor (Rattus norvegicus, UniProt P19327).
T1 construct: Tissue: cerebral cortex of rat; from tissue; host or cells: rat cerebral cortex
The test can be described thus: Affinity for the 5-HT1A receptor (3H-8-OH-DPAT displacement). Type of test: binding. To be noted: Tissue: cerebral cortex of rat, average of at least 3 experiments, read-out: pKi site 5-HT1A (converted). As to the method: Measurement of the affinity of compound F and reference products for the 5-HT1A receptor
Study of the bond with the 5-HT1A receptor was carried out according to a standard method (Naunyn-Schmiedeberg's Arch. Pharmaco. 1991, 343, 106). The inhibition constants (Ki) of the products according to the invention were estimated from displacement experiments using the version 4 RADLIG non-linear regression programme of EBDA (Equilibrium Binding Data Analysis) (Biosoft, Cambridge, UK, Mc Pherson, 1985). The dissociation constants of the radioactive ligands used in the calculations are 0.31 nmole for ^3H-8-OH-DPAT. The values of pKi (−logKi) are provided under the form of average±SEM of at least 3 experiments.

Test [1] has as its system morphine withdrawal syndrome (hyperalgesia). The experiment in a line: Effects on morphine dependence: naloxone-precipitated withdrawal hyperalgesia (Randall and Selitto nociceptive thresholds). It is filed as in vivo. To be noted: rat; co-treatment morphine 5 mg/rat/day + compound 2.5 mg/rat/day, s.c. osmotic mini-pumps 2 weeks; naloxone 0.63 mg/kg s.c.; SNK p<0.05 vs control.

`CC1(C)CC(=O)N(CCCCN2CCN(c3ncccn3)CC2)C(=O)C1` [gepirone]: the Ki on 5-HT1A receptor is 0.0676 µM. Also, the “Effect on hyperalgesia / morphine withdrawal syndrome (AUC of nociceptive thresholds)” value in test [1] is “did not have any detectable effect on the hyperalgesia”.
